Data: ChEMBL document CHEMBL1148329, “Synthesis and structure-activity studies on N-[5-(1H-imidazol-4-yl)-5,6,7,8-tetrahydro-1-naphthalenyl]methanesulfonamide, an imidazole-containing alpha(1A)-adrenoceptor agonist” (J Med Chem, 2004)
Where “and” joins values, the source holds several entries; their conditions need not be identical. Equal entries are not always repeated.

Amino acid sequences for entries named in this document (tags omitted).
UniProt P18841, whole entry: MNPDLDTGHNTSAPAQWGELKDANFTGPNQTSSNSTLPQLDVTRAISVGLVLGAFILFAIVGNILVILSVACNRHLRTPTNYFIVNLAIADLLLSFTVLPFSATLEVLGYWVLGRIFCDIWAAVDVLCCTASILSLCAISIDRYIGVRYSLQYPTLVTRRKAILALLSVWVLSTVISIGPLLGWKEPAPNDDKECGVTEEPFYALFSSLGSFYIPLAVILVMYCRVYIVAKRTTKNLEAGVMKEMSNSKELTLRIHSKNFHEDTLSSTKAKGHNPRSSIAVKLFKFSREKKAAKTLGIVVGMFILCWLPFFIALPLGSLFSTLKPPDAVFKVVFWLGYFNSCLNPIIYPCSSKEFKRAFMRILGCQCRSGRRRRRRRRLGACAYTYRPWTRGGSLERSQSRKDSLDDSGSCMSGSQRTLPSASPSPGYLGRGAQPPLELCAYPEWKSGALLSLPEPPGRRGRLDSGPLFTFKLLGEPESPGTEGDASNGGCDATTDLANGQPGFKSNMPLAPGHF
UniProt P15823, whole entry: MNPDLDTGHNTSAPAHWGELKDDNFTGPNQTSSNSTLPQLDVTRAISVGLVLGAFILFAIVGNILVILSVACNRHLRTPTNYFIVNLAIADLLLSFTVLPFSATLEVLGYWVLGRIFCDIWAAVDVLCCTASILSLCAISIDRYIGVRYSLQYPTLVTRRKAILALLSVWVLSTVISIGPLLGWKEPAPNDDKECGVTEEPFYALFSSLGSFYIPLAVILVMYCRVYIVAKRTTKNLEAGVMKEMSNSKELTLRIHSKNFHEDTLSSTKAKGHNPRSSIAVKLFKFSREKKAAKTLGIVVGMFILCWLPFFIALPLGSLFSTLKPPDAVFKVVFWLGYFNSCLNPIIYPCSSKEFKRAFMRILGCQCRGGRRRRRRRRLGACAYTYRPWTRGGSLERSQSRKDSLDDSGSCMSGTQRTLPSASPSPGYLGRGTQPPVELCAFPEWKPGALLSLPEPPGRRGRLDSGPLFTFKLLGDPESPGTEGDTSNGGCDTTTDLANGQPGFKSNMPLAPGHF
UniProt P23944, whole entry, looked up: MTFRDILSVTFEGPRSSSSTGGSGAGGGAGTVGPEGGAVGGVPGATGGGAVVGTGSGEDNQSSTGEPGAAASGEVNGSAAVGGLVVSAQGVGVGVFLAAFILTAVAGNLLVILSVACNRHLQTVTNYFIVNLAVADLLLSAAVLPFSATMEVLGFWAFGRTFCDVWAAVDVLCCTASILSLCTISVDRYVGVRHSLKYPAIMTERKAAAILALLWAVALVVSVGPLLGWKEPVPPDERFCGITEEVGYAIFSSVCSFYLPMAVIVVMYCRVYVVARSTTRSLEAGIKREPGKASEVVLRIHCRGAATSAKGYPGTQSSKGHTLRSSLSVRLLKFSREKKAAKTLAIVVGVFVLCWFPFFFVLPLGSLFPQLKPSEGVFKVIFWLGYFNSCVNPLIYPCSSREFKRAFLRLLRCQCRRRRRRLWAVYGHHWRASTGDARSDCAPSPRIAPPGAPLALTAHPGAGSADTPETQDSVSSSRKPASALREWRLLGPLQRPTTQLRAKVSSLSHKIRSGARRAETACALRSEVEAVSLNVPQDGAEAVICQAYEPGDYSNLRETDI
UniProt P22909, whole entry: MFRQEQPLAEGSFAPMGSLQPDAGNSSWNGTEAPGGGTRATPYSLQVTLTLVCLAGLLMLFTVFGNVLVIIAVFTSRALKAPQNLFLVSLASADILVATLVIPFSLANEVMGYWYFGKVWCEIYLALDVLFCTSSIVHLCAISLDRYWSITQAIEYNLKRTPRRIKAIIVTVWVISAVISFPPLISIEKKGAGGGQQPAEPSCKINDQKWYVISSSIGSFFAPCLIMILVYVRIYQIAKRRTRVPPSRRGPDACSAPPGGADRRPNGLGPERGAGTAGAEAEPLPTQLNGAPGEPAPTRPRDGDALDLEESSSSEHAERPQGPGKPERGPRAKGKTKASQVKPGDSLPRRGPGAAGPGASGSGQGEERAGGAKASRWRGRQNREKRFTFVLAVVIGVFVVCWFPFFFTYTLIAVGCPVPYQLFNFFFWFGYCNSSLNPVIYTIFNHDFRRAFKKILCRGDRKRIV
UniProt P08913, whole entry: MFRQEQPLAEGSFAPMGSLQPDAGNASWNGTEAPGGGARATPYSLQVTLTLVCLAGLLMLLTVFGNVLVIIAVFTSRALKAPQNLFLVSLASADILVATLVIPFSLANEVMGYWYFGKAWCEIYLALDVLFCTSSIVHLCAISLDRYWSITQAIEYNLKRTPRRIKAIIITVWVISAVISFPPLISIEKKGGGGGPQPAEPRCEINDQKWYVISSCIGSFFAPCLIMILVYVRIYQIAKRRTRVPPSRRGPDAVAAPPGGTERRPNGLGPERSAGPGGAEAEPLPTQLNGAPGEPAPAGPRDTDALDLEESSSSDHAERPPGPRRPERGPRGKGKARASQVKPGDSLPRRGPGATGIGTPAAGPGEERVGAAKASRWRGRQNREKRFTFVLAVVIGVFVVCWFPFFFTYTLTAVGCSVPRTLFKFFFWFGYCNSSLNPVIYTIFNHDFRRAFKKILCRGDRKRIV

Columns and labels:
Canis familiaris = species on record: Canis familiaris; test: Ratio of MAP ED delta20 to that of IUP ED delta5
[1] = biological target: Alpha-1B adrenergic receptor (Mesocricetus auratus, UniProt P18841); test: In vitro binding affinity towards alpha-1B adrenergic receptor of hamster clone in radioligand binding assay; type: single protein
Outline: (§1)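 Radioligand binding at α1 subtypes: α1A from rat submaxillary gland, α1B hamster clone, α1D rat clone. Run essentially per an earlier method. Values are pKi (−log Ki) ± SEM from ≥3 determinations (2 where footnoted).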

[2] = biological target: T1, Alpha-1A adrenergic receptor (Oryctolagus cuniculus) (UniProt O02824); test: Functional agonism of the compounds to constrict tissue containing the alpha-1A adrenergic receptor in rabbit urethra; type: tissue-based
T1 sequence (whole entry): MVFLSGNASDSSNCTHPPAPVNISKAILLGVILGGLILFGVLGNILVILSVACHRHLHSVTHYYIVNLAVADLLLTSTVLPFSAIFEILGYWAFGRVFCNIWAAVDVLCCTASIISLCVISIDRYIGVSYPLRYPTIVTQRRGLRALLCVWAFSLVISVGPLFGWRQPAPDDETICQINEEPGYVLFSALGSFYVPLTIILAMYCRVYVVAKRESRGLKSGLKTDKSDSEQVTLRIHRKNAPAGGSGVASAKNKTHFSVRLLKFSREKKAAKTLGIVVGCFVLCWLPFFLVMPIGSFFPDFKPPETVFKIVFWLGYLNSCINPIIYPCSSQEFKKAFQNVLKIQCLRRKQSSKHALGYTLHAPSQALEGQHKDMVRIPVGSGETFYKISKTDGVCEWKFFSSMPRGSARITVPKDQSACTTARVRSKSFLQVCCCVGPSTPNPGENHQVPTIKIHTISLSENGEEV
Outline: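 α1-agonist dose–response curves in isolated tissue: rabbit urethra (α1A), rat spleen (α1B), rat aorta (α1D). Agonist potency and efficacy read from the concentration–response curves.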

[3] = biological target: Alpha-1B adrenergic receptor (Rattus norvegicus) (UniProt P15823); test: Functional agonism of the compounds to constrict tissue containing the alpha-1B adrenergic receptor in rat spleen; type: tissue-based
Outline: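 Agonist dose–response curves were run on isolated tissue: rabbit urethra for α1A, rat spleen for α1B, and rat aorta for α1D.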

[4] = biological target: Alpha adrenergic receptor 1A and 1B (Rattus norvegicus) (UniProt P15823+P43140); test: Selectivity is ratio of pKi (binding affinity) of alpha-1B receptor to that of alpha-1A receptor.; type: protein assay
[5] = biological target: Alpha adrenergic receptor 1A and 1D (Rattus norvegicus) (UniProt P23944+P43140); test: Selectivity is ratio of pKi (binding affinity) of Alpha-1D to that of alpha1A; type: protein assay
[6] = biological target: Alpha-2A adrenergic receptor (Rattus norvegicus) (UniProt P22909); test: Functional agonism to constrict tissue containing alpha-2A adrenergic receptor in rat prostatic vas deferens; type: tissue-based
Outline: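 For α2A, dose–response curves measured inhibition of field-stimulated contraction of rat prostatic vas deferens. pD2 is −log EC50, the concentration giving 50% of total relaxation. Efficacy is percent relative to clonidine. Values are mean ± SEM.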

[7] = biological target: Alpha-2A adrenergic receptor (Homo sapiens, UniProt P08913); test: In vitro binding affinity towards alpha-2A adrenergic receptor of human clone in radioligand binding assay
[8] = Relative affinities for alpha-2a and alpha-1A receptors
Rattus norvegicus = species on record: Rattus norvegicus; test: Relative affinities for alpha2B and alpha1A receptors
[9] = Selectivity is ratio of efficacy of alpha-2A to that of alpha1A adrenoceptor; type: functional
[10] = biological target: Alpha-1D adrenergic receptor (Rattus norvegicus, UniProt P23944); test: In vitro binding affinity towards alpha-1D adrenergic receptor of rat clone in radioligand binding assay
Outline: as §1

[11] = biological target: T2, Alpha-1A adrenergic receptor (Rattus norvegicus, UniProt P43140); test: In vitro binding affinity towards alpha-1A adrenergic receptor of rat submaxillary gland in radioligand binding assay
T2 sequence (P43140 whole entry): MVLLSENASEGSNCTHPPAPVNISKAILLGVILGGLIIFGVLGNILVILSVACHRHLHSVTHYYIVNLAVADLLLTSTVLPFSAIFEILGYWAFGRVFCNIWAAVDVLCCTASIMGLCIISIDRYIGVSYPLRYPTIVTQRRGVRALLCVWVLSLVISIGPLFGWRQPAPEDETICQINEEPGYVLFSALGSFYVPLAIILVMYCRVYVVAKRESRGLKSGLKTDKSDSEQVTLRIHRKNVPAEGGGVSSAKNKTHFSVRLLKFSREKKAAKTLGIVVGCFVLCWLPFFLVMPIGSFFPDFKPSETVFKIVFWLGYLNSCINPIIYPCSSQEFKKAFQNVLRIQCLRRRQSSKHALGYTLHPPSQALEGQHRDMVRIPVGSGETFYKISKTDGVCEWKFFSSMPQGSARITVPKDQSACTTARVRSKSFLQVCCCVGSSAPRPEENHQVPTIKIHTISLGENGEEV
Outline: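 Radioligand binding at α1 subtypes: α1A from rat submaxillary gland, α1B hamster clone, α1D rat clone. Run essentially per an earlier method.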

Compound | Ratio (Canis familiaris) | Ki [1] | pD2 [2] | pD2 [3] | Selectivity [4] | Selectivity [5] | pD2 [6] | Ki [7] [nM] | Selectivity [8] | Selectivity (Rattus norvegicus) | Selectivity [9] | Ki [10] [nM] | Ki [11] [nM]
CS(=O)(=O)Nc1cccc2c1OCCC2c1c[nH]cn1 (stereo not drawn) | 2.3 | > 10 µM | 6 | 5.09 | 20 | 2 | – | – | – | – | – | – | –
CCS(=O)(=O)Nc1cccc2c1CCC2c1c[nH]cn1 (stereo not drawn) | 1.3 | – | 7.18 | – | 90 | 40 | 6.68 | 97.7 | 4 | 8 | 3 | – | –
CS(=O)(=O)Nc1cccc2c1CCC[C@H]2c1c[nH]cn1 | 4.4 | – | 6.45 | – | 20 | 20 | 8.05 | – | – | – | 0.03 | – | –
CC(=O)Nc1cccc2c1CCCC2c1c[nH]cn1 (stereo not drawn) | 3.1 | > 10 µM | 5.89 | 4.84 | 20 | 19 | 6.64 | – | 1 | 6 | 0.2 | > 10000 | –
CS(=O)(=O)Nc1cccc2c1CCC=C2c1c[nH]cn1 | – | 10.5 µM and > 10 µM | 4.67 and 4.54 | – | 9 and > 10 | 1 and 3 | – | – | – | – | – | 1700 | 1150
CS(=O)(=O)Nc1cccc2c1CCCC2c1c[nH]cn1 (stereo not drawn) | 4.8 | 4.68 µM | 6.35 | – | 20 | 8 | 7.45 | – | 0.5 | 3 | 0.08 | – | 195
